According to patent publication US20040258668A1 (priority 2001, published 2004):

System: SeV viral proteins (M, NP)
Test: Western blotting of viral proteins (anti-M antibody, DN-1 antibody)
Details: aspirin added two days after infection; media every two days, cells six days after addition

Compound: CC(=O)Oc1ccccc1C(=O)O [aspirin, acetylsalicylic acid]
- viral proteins in cultured media and infected cells: viral proteins in the cultured media and in infected cells were both reduced
